Source: patent US20040171533A1, “Methods and compositions for regulating adiopocytes” (priority 2000, published 2004)

Experiments:
Assay type in all cases: cell-based, mouse
[1] = system: gli expression in C3H10T1/2 cells; test: Quantitative competitive RT-PCR of hedgehog responsive gene gli in C3H10T1/2 cells
Procedure: (§1) Mouse fibroblast C3H10T1/2 cells (ATCC CCL 226) were grown as monolayers in DMEM with 10% fetal calf serum (Cansera, Greiner GmbH, Frickenhausen, Germany) at 37° C. in a 5% CO2 atmosphere. Treatment with BMP-2, Shh or a combination of both was done for 72 h under serumfree conditions or for 11 days in the presence of 10% FCS. The medium with inducers was changed twice a week.
(§2) BMP-2 was provided by W. Sebald, Würzburg, Germany, and used at a concentration of 500 ng/ml. […]
(§3) RNA was isolated using the High Pure RNA Isolation Kit (Roche Molecular Biochemicals Cat. No. 1 828 665). RNA quantity was determined by measuring absorption at 260 nm, and quality was checked in an agarose gel.
(§4) PPAR-γ, aP2, gli, ptc and actin mRNAs were quantitated via competitive RT-PCR using a multigene standard (Gilliland et al., 1990). […]
(§5) After linearization the standard vector was transcribed with T7 RNA polymerase into standard cRNA and treated with DNase I. 0.5 μg cellular RNA and different concentrations of standard cRNA were combined and reverse transcribed. […] PCR propducts were analyzed by gel electrophoresis with ethidium bromide staining.
(§6) In order to quantitate the PCR products resulting from competitive RT-PCR the intensity of the bands in the gel was measured with the gel imaging system E.A.S.Y. (Herolab GmbH, Wiesloch, Germany). […]

[2] = system: ptc expression in C3H10T1/2 cells; test: Quantitative competitive RT-PCR of hedgehog receptor patched (ptc) in C3H10T1/2 cells
Procedure: as §1, §2, §3, §4, §5, §6

C3H10T1/2 cells = test: Oil Red O staining of C3H10T1/2 cells (adipocyte-like phenotype); conditions: 11 days of treatment with FCS
Procedure: as §1
BMP-2 was provided by W. Sebald, Würzburg, Germany, and used at a concentration of 500 ng/ml. Human sonic hedgehog protein was derived from baculovirus-mediated expression in insect cells and applied to cells as described previously (Zehentner et al., 1999) The baculovirus supernatants containing approximately 20 μg/ml hedgehog protein were diluted 1:40 (v/v) in the assay. For RT-PCR the experiment was stopped with lysis buffer (4.5 M guanidin hydrochloride, 50 mM Tris-HCl, 30% TritonX-100 (w/v), pH 6.6) after 72 h. The cell lysate was stored at −80° C. until RNA extraction.
The stock solution of Oil Red O was prepared by dissolving 4.2 g of Oil Red O (Sigma-Aldrich Chemie GmbH, Deisenhofen, Germany) in 1200 ml isopropanol. The solution was left overnight at room temperature without stirring followed by filtration. At last 900 ml of water was added and solution was left overnight at 4° C. with stirring.
Cultures were fixed for 5 h with 4% paraformaldehyde in isotonic phosphate buffer. […]

[3] = system: aP2 expression in C3H10T1/2 cells; test: Quantitative competitive RT-PCR of adipocyte marker aP2 in C3H10T1/2 cells; conditions: normalized with actin
Procedure: as §1, §2, §3, §4, §5, §6

[4] = system: PPAR-γ expression in C3H10T1/2 cells; test: Quantitative competitive RT-PCR of adipocyte marker PPAR-γ in C3H10T1/2 cells; conditions: normalized with actin
Procedure: as §1, §2, §3, §4, §5, §6

[5] = 72 h serumfree culture, BMP-2 500 ng/ml, Shh supernatant 1:40

B1: Bone morphogenic protein-2 (protein, UniProt P12643 283-396, looked up)
Bone morphogenetic protein 2: QAKHKQRKRLKSSCKRHPLYVDFSDVGWNDWIVAPPGYHAFYCHGECPFPLADHLNSTNHAIVQTLVNSVNSKIPKACCVPTELSAISMLYLDENEKVVLKNYQDMVVEGCGCR
notes: Bone morphogenic protein-2, provided by W. Sebald, used at a concentration of 500 ng/ml
gli expression, increase compared to the untreated control ([1]; 72 h serumfree): 3 fold | gli expression, increase compared to the untreated control ([1]; 11 days in the presence of serum): no effect | patched relative expression level increased by factor ([2]; 72 h serumfree): 0.5 factor | patched (ptc) mRNA expression, increase ([2]; 11 days with serum): no increase | Oil Red O staining / lipid vesicles, adipocyte phenotype (C3H10T1/2 cells): a significant amount of cells acquired the rounded shape of mature adipocytes | aP2 expression, relative expression level in comparison to untreated cells [3, 5]: 3 fold | aP2 expression, relative expression level in comparison to untreated cells ([3]; 11 days with 10% FCS): 2.1 fold | PPAR-γ expression, relative expression level in comparison to untreated cells [4, 5]: 3.5 fold | PPAR-γ expression, relative expression level in comparison to untreated cells ([4]; 11 days with 10% FCS): 2.5 fold
